{"source": "patent US20150133493A1", "about": "“COUMARIN-BASED COMPOUNDS FOR THE TREATMENT OF ALZHEIMER'S DISEASE AND CANCER” (Sloan-Kettering Institute for Cancer Research, priority 2008, published 2015)", "key": {"[1]": {"biological_target": "γ-secretase, cell membrane from cells that stably express the PS1-M146L familial mutation (Homo sapiens, UniProt P49768, M146L)", "experiment": "In vitro γ-secretase assay with membrane of cells expressing PS1-M146L", "text": "(§1) To discover selective GSIs, we screened large collections of small molecules (˜200,000 compounds) at the Sloan-Kettering Institute High Throughput Screening (HTS) Core Facility. Our HTS approach uncovered several novel classes of GSIs as well as currently established scaffolds. […] In our multiple in vitro assays, both compounds selectively abrogated Aβ42 production over Aβ40 (FIG. 2) by approximately 3.5-fold. […] Clearly, these compounds could represent a novel class of inhibitors that selectively target Aβ42 production. […] The predominant trend for this family of compounds was increased potency against Aβ42 over Aβ40, Aβ38, or Notch. […] Lastly, we also determined the inhibitory potency of CS-1 against cell membrane prepared from cells that stably express the PS1-M146L familial mutation (16). […]\n(§2) Cell membranes and solubilized γ-secretase were prepared as described previously (36). […] Cleaved product was detected using ruthenylated antibodies that recognize specific APP cleavage sites (Aβ31-38*, G2-10*, or G2-11* antibody for Aβ38, Aβ40, or Aβ42 respectively). The Km and Vmax in the presence and absence of γ-secretase inhibitors were analyzed by non-linear curve fit using the software SigmaPlot 8.0 with the Michaelis-Menten equation (v=Vm [S]/(Km+[S]; v: initial rate; Vm: maximum velocity; Km: the Michaelis-Menten constant, S: substrate)."}, "[2]": {"biological_target": "γ-secretase (Mus musculus, UniProt P49769)", "experiment": "AICD generation assay with N2A APPsw cell membrane", "conditions": "read-out: IC50 on AICD production, 37° C. for 2 hours", "method": "FIG. 3. Cellular evaluation of the coumarin-dimer CS-1 and its selective inhibition of Aβ42. Compounds were incubated with the APPsw-N2A mouse neuroblastoma cells for 24 hours and media were analyzed by biotinylated 4G8 and ruthenylated antibodies specific for each respective cleavage product. (a) CS-1 preferentially abrogates Aβ42 production with no effect on Aβ40 or Aβ38. […] (c) The GSM indomethacin reduces Aβ42 production, potently increases Aβ38, and has little effect on Aβ40. (d) Immunoprecipitation mass spectrometry analysis of CS-1 effect on secreted β-amyloid species. Aβ peptides were immunoprecipitated using 4G8 antibody and isolated with Protein G+/A agarose beads. Samples were analyzed by MALDI-MS. Samples shown are representative and each data point was performed in triplicate. (e) Cell-based Notch cleavage assay. HEK-293 cells were transfected with ΔE Notch construct and then Compound E and CS-1 were evaluated for their ability to inhibit γ-secretase-mediated Notch intracellular domain production. […] Western blot is representative and was performed in triplicate. (f) Effect of CS-1 on AICD production. […] The generated AICD and APP-CTFs were detected by Western Blotting using APPc antibody. […]\nWe next determined the ability of CS-1 to suppress cellular γ-secretase activity for Notch1 cleavage. […]"}, "[3]": {"biological_target": "T1, γ-secretase (Homo sapiens, UniProt P49768)", "experiment": "In vitro γ-secretase activity assay, Aβ38 production (ECL)", "conditions": "read-out: in vitro IC50 against Aβ38"}, "[4]": {"system": "N2A mouse neuroblastoma cells overexpressing APP Swedish mutation", "experiment": "IP-MS analysis of β-amyloid peptides from cell media", "conditions": "N2A APPsw conditioned media, MALDI-MS", "method": "FIG. 3. Cellular evaluation of the coumarin-dimer CS-1 and its selective inhibition of Aβ42. Compounds were incubated with the APPsw-N2A mouse neuroblastoma cells for 24 hours and media were analyzed by biotinylated 4G8 and ruthenylated antibodies specific for each respective cleavage product. (a) CS-1 preferentially abrogates Aβ42 production with no effect on Aβ40 or Aβ38. […] (c) The GSM indomethacin reduces Aβ42 production, potently increases Aβ38, and has little effect on Aβ40. (d) Immunoprecipitation mass spectrometry analysis of CS-1 effect on secreted β-amyloid species. Aβ peptides were immunoprecipitated using 4G8 antibody and isolated with Protein G+/A agarose beads. Samples were analyzed by MALDI-MS. Samples shown are representative and each data point was performed in triplicate. (e) Cell-based Notch cleavage assay. HEK-293 cells were transfected with ΔE Notch construct and then Compound E and CS-1 were evaluated for their ability to inhibit γ-secretase-mediated Notch intracellular domain production. […] Western blot is representative and was performed in triplicate. (f) Effect of CS-1 on AICD production. N2A APPsw cell membrane was prepared and incubated with the indicated concentrations of CS-1 at 37° C. for 2 hours. The generated AICD and APP-CTFs were detected by Western Blotting using APPc antibody. Western blot is representative and was performed in triplicate.\nWe next set out to determine if the selective inhibition of Aβ42 was maintained in a cell-based system for APP processing. First, we compared our lead compound CS-1 (FIG. 3a) to Compound E (FIG. 3b) and the GSM compound indomethacin (FIG. 3c). […]\nAβ peptide profiles were analyzed by immunoprecipitation/mass spectrometry (37). […] The molecular masses of immunoprecipitated Aβ species were measured using a Voyager-DE STR matrix assisted laser desorption ionization time-of-flight mass spectrometer (Applied Biosystems). […] Peaks corresponding to Aβ peptides were identified using the measured molecular masses searching against human Aβ peptide."}, "[5]": {"system": "N2a mouse neuroblastoma cells that stably express Swedish-mutated APP", "experiment": "Cell-based assay of secreted Aβ42, Aβ40, Aβ38 in APPsw-N2A cells", "conditions": "read-out: EC50 for inhibition of Aβ42 production, 24 hrs at 37° C.", "method": "FIG. 3. Cellular evaluation of the coumarin-dimer CS-1 and its selective inhibition of Aβ42. Compounds were incubated with the APPsw-N2A mouse neuroblastoma cells for 24 hours and media were analyzed by biotinylated 4G8 and ruthenylated antibodies specific for each respective cleavage product. (a) CS-1 preferentially abrogates Aβ42 production with no effect on Aβ40 or Aβ38. […] (c) The GSM indomethacin reduces Aβ42 production, potently increases Aβ38, and has little effect on Aβ40. (d) Immunoprecipitation mass spectrometry analysis of CS-1 effect on secreted β-amyloid species. Aβ peptides were immunoprecipitated using 4G8 antibody and isolated with Protein G+/A agarose beads. Samples were analyzed by MALDI-MS. Samples shown are representative and each data point was performed in triplicate. (e) Cell-based Notch cleavage assay. HEK-293 cells were transfected with ΔE Notch construct and then Compound E and CS-1 were evaluated for their ability to inhibit γ-secretase-mediated Notch intracellular domain production. […] The generated AICD and APP-CTFs were detected by Western Blotting using APPc antibody. […]\nCell membranes and solubilized γ-secretase were prepared as described previously (36). […] Cleaved product was detected using ruthenylated antibodies that recognize specific APP cleavage sites (Aβ31-38*, G2-10*, or G2-11* antibody for Aβ38, Aβ40, or Aβ42 respectively). […]"}, "[6]": {"biological_target": "T1, γ-secretase", "experiment": "In vitro γ-secretase activity assay, Aβ40 production (ECL)", "conditions": "read-out: in vitro IC50 against Aβ40", "method": "(§3) FIG. 2. In vitro characterization of coumarin-dimer allosteric GSIs against various γ-secretase cleavage products. The potency of 7 unique coumarin-based γ-secretase inhibitors were evaluated for efficacy against γ-secretase-mediated production of Aβ40, Aβ42, Aβ38, and Notch. Additionally, the pan-GSI Compound E was also examined in these assays. The IC50 values were calculated from the dose response curves using a non-linear regression analysis in Prism software. IC50 values are presented with standard deviation (n=3 for each data point). […] Ruthenylated antibodies that detected the -40, -42, or -38 cleavage site were incorporated to detect proteolysis indicative of γ-secretase activity. […] Electrochemiluminescence was quantified on an Analyzer (BioVeris). […]\nThe assay protocol employed was a modified version of that described in Li et al., 2000, Proc. Nat'l Acad. Sci. USA 97:6183-643, incorporated herein by reference. […] The products were detected with various antibody combinations using electrochemiluminescence (ECL) technology as previously described in Li et al., 2000, Proc. Nat'l Acad. Sci. USA 97:6183-643; Lai et al., 2003, J. Biol. Chem. 278: 22475-22481; and Yin et al., 2007, J. Biol. Chem. 282:23639-23644. The amount of product was determined using synthetic peptide or recombinant standards. […]"}, "[7]": {"system": "cell viability", "experiment": "Cytotoxicity study using Alamar Blue", "conditions": "up to 30 μM", "method": "We next set out to determine if the selective inhibition of Aβ42 was maintained in a cell-based system for APP processing. First, we compared our lead compound CS-1 (FIG. 3a) to Compound E (FIG. 3b) and the GSM compound indomethacin (FIG. 3c). N2a mouse neuroblastoma cells that stably express Swedish-mutated APP substrate were treated with the indicated compounds for 24 hrs at 37° C. Following 24 hr incubation period, the medium was collected from the cells and assayed for secreted Aβ42, Aβ40, and Aβ38. CS-1 inhibited Aβ42 production with an EC50 of approximately 3 μM in our cell-based assay, yet had virtually no effect on Aβ38 or Aβ40 production up to 30 μM (FIG. 3a). Furthermore, cytotoxicity studies using Alamar Blue indicated CS-1 had little to no effect on cell viability up to 30 μM (data not shown). […] The result for indomethacin mirrored those findings by Kukar et al. whereby a different cell-based system was utilized (17), further validating our assay system for analysis of these Aβ species. […] This may reflect subtle variations between the cellular and in vitro conformations of γ-secretase. Nevertheless, the cell-based studies confirmed that CS-1 maintains a preference for inhibition of the γ-secretase mediated production of Aβ42 over Aβ40 or Aβ38, which is distinct to previously reported GSMs (17) and inhibitors (14-15, 18)."}, "[8]": {"biological_target": "T1, γ-secretase", "experiment": "In vitro γ-secretase assay detecting Notch cleavage (Notch1-TM substrate, SM320 antibody)", "conditions": "read-out: in vitro IC50 against Notch", "method": "as §3\nThe in vitro γ-secretase assay detecting Notch cleavage was similar to the assays described above, however there were a few notable differences. […] Cleaved product was detected using the affinity polyclonal anti-NICD-1 antibody (SM320), which recognizes the cleaved product and not the substrate, as well as a ruthenylated secondary anti-rabbit antibody. The sample was then similarly incubated with magnetic streptavidin beads and quantified by measuring electrochemiluminescence."}, "[9]": {"system": "γ-secretase from mouse brain membrane", "experiment": "In vitro γ-secretase assay with mouse brain membrane", "text": "as §1, §2"}, "[10]": {"biological_target": "T1, γ-secretase", "experiment": "Inhibition kinetic analysis in the in vitro γ-secretase activity assay", "conditions": "APP-transmembrane domain substrate", "method": "FIG. 4. Kinetic analysis of allosteric GSIs and evaluation of their effect on the γ-secretase active site architecture. (a) Kinetic analysis of CS1 was performed using our modified version of a previously reported in vitro γ-secretase activity assay. The inhibition kinetics were analyzed by using a non-linear curve fit with the Michaelis-Menten equation. Upper right inset: we replotted slopes against the inhibitor concentrations after performing double reciprocal conversion. (b) Schematic representation of the allosteric binding of the di-coumarin compounds to γ-secretase. This binding ultimately causes an alteration at the active site of γ-secretase. Black rectangle represents the coumarin-dimer compound. (c) The binding of L458 to the active site of γ-secretase and its interaction at various subpockets within the enzyme. […]\nas §2"}, "[11]": {"biological_target": "T1, γ-secretase", "experiment": "In vitro γ-secretase activity assay, Aβ42 production (ECL)", "conditions": "read-out: in vitro IC50 against Aβ42"}}, "note": "Where two headings read alike, the source gives them in different places.", "data": [{"smiles": "O=c1oc2ccccc2c(O)c1C(c1cc(F)c(F)c(F)c1)c1c(O)c2ccccc2oc1=O", "note": "[Compound 37]", "values": [{"measurement": "IC50", "setting": "[1]; read-out: IC50 Aβ40", "result": 167, "unit": "nM"}, {"measurement": "IC50", "setting": "[1]; read-out: IC50 Aβ42", "result": 206, "unit": "nM"}, {"measurement": "IC50", "setting": "[2]", "result": "> 10000", "unit": "nM"}, {"measurement": "IC50", "setting": "[3]", "result": 710, "unit": "nM"}, {"measurement": "effect on secreted Aβ38 by IP-MS", "setting": "[4]", "result": "largely intact"}, {"measurement": "effect on secreted Aβ40 by IP-MS", "setting": "[4]", "result": "largely intact"}, {"measurement": "effect on secreted Aβ42 by IP-MS", "setting": "[4]", "result": "inhibit"}, {"measurement": "EC50", "setting": "[5]", "result": 3000, "unit": "nM"}, {"measurement": "IC50", "setting": "[6]", "result": 310, "unit": "nM"}, {"measurement": "effect on cell viability", "setting": "[7]", "result": "little to no effect"}, {"measurement": "IC50", "setting": "[8]", "result": 1770, "unit": "nM"}, {"measurement": "IC50", "setting": "[9]; read-out: IC50 Aβ40", "result": 380, "unit": "nM"}, {"measurement": "IC50", "setting": "[9]; read-out: IC50 Aβ42", "result": 112, "unit": "nM"}, {"measurement": "mode of inhibition against APP-TM substrate", "setting": "[10]", "result": "non-competitive inhibition"}, {"measurement": "IC50", "setting": "[11]", "result": 70, "unit": "nM"}]}]}
